From US9273040B2 (Merck Sharp & Dohme Corp., priority 2011, dated 2016)

Amino acid sequences for entries named in this document (tags omitted).
UniProt Q14524, whole entry: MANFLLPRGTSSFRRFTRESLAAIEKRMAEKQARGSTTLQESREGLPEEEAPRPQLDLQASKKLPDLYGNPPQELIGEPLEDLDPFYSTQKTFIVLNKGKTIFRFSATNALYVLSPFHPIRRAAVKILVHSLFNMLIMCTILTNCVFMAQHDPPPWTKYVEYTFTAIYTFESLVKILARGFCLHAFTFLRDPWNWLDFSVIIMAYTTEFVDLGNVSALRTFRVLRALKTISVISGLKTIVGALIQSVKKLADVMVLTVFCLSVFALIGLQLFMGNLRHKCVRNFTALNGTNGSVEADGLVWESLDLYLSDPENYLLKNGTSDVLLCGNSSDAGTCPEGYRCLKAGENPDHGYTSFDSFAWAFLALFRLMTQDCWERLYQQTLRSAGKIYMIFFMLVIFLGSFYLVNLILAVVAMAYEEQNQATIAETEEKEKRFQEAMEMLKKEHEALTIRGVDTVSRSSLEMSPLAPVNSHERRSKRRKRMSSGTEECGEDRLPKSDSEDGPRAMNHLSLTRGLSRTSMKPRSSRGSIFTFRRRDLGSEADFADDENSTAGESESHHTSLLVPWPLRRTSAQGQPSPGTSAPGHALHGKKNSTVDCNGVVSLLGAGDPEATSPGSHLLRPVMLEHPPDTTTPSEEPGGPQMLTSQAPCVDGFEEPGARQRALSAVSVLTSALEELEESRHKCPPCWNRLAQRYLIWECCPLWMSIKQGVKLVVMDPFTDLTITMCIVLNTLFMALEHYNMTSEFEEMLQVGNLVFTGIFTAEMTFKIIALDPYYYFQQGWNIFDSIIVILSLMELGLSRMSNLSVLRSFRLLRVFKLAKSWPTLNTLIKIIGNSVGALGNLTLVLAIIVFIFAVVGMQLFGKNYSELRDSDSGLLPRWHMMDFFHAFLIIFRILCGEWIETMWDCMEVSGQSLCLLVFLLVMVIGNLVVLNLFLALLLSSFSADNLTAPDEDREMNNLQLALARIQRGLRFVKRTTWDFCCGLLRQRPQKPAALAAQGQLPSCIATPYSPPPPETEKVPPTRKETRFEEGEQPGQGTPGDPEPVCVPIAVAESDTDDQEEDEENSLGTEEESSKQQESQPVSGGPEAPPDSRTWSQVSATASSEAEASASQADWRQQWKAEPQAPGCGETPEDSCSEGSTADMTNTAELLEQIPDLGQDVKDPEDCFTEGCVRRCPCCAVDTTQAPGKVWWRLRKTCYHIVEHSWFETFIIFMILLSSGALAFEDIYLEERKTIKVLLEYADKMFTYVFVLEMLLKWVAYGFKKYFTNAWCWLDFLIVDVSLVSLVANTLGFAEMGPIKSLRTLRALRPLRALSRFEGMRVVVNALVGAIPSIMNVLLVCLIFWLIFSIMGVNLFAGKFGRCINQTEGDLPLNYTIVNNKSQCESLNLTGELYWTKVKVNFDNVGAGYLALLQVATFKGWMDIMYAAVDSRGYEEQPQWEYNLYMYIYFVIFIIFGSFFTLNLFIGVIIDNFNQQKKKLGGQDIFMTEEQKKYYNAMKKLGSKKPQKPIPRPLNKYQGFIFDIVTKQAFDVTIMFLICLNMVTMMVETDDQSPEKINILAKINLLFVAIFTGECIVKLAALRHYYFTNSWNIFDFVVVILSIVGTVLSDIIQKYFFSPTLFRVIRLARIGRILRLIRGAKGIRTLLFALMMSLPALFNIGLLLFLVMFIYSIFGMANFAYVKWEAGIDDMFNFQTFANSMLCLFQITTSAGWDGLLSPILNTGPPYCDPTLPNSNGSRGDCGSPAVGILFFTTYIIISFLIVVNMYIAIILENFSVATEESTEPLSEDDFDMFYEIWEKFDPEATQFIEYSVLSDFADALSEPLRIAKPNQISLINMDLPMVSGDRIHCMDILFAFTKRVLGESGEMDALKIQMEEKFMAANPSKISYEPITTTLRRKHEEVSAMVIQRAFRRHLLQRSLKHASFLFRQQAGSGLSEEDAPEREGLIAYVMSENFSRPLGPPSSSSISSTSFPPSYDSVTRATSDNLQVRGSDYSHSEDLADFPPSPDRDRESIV
UniProt Q15858, whole entry: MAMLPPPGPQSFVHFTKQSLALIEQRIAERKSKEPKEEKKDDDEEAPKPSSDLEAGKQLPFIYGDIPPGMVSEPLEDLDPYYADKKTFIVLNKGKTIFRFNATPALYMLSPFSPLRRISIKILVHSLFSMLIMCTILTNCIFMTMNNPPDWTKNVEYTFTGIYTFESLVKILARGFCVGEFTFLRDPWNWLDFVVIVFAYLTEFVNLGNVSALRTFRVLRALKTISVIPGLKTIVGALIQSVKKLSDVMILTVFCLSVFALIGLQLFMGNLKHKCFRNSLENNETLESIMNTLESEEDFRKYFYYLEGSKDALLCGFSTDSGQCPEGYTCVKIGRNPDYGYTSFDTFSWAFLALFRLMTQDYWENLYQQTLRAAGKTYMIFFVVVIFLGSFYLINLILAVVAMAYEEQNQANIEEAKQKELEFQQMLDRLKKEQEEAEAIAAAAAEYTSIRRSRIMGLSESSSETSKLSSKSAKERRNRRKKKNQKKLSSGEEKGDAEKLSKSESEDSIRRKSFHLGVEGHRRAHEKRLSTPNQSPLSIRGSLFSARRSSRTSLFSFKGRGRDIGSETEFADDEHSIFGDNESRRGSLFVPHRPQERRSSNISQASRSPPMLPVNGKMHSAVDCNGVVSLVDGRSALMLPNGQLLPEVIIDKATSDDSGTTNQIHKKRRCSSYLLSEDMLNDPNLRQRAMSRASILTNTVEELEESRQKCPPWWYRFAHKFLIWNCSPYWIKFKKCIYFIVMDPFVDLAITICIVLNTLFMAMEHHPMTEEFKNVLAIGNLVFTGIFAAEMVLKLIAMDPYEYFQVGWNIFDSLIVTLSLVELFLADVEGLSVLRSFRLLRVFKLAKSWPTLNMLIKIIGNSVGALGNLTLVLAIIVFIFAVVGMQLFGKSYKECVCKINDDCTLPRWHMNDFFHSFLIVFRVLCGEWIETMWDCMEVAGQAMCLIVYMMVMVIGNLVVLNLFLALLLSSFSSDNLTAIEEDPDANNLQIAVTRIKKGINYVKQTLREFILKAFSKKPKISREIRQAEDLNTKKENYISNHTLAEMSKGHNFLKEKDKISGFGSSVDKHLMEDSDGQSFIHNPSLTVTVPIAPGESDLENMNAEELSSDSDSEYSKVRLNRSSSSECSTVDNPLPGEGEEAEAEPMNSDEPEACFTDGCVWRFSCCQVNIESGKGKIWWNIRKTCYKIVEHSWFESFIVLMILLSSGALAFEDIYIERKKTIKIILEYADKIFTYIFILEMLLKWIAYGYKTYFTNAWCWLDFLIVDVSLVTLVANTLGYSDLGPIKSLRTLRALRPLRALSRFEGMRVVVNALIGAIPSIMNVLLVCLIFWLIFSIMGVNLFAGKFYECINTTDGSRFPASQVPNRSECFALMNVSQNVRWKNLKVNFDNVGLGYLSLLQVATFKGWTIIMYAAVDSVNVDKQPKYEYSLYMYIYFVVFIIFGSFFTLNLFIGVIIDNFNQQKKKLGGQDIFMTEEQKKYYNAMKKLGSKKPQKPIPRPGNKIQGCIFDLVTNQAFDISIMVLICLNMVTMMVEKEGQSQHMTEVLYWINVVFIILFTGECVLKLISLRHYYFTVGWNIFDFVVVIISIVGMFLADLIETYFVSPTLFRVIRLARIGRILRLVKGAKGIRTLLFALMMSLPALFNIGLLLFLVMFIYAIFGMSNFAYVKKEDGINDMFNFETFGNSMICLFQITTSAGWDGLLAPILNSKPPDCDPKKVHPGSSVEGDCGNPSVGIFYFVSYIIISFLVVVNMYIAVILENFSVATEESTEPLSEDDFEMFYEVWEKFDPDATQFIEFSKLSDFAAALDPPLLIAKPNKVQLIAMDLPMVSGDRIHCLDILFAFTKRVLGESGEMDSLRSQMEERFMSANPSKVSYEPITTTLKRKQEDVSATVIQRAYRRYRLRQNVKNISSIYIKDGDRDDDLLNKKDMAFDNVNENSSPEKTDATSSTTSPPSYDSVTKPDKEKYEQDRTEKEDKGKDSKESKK

Tests used:
[1] = target: human Nav1.5 channels stably expressed in HEK 293 cells (Homo sapiens, UniProt Q14524); test: PatchXpress 7000 automated patch-clamp, sodium current; assay type: cell-based; conditions: selectivity over Nav1.5
[2] = target: human Nav1.7 channels stably expressed in HEK 293 cells (Homo sapiens, UniProt Q15858); test: as above; assay type: cell-based; conditions: read-out: potency for the Nav 1.7 sodium ion channel (as measured by PatchXpress), 22° C.

## Nc1cc2c(Cn3c(=O)oc4cc(S(=O)(=O)Nc5ncns5)ccc43)cccc2cn1
[1]
  ratio of Nav 1.5:Nav 1.7 potency, determined by PatchXpress measurement: 61
[2]
  IC50: 492 nM
